The text below walks through data of PubChem BioAssay AID1663 (Broad Institute, 2009).

The list shows a part of the results, in another mix than the full data. Active and inactive are the calls of the source.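 The calls were made as follows: active = mean replicate score, as percent of positive control, at or above 50; inconclusive = mean below 50 but at least one replicate at or above 50; inactive = mean and every replicate below 50.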

This assay in a line: inhibitors of platelet dense granule secretion, primary screen, cell-based, MLPCN, human platelets (AID 1663). The conditions noted are these: human platelet-rich plasma, SFLLRN dense granule ATP release, luminescence; hits give high values;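 compounds screened at 7.5 µM in platelet-rich plasma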.
Take `CN(C)C1(CNC(=O)c2ccc(S(C)(=O)=O)cc2)CCCCC1`: the inhibition – broadly, the change of the read-out against control, counted positive when it falls – is inactive: 0.221%. As for `O=P1(Nc2ncccn2)COc2ccccc2OC1`, the inhibition is inactive: 4.85%. Turning to `O=P1(Nc2ccc(Br)cn2)COc2ccccc2OC1`, the inhibition was inactive: -16.1%.

Consider `Cc1ccc(OCC(=O)OC2CN3CCC2CC3)cc1` (stereo not given), for which the inhibition is inactive: 0.265%. Next, `O=[As](O)(c1cccs1)c1cccs1`: inactive: -3.86%; `Nc1cccc([As](=O)(O)c2ccccc2)c1`: inactive: -2.49%; `CN(CCCl)Cc1cc(Cl)c(NC2=NCCN2)c(Cl)c1`: inactive: -3.79%.

For the compound `CCOP(=O)(Nc1ccc(C)cn1)OCC`, the inhibition was inactive: 3.32%. Next, `CCOP(=O)(NC(=NC(C)c1ccccc1)NC(C)c1ccccc1)OCC` (stereo not given): inactive: 6.32%; `O=P1(Nc2ccccn2)COc2ccccc2OC1`: inactive: -1.4%.

`CCC1=CC2Cc3nc4ccc(Cl)cc4c(N)c3C(C1)C2` (stereo not given): the inhibition was inactive: 2.48%.

For `CC(C)(C)C(=O)NC(Sc1ncccn1)C(Cl)(Cl)Cl` (stereo not given), the inhibition was inactive: -1.8%.

`Clc1n[nH]nc1-c1nn[nH][15n]1`: the inhibition is inactive: -7.63%.

As for `COc1ccccc1CNC(=O)COC(=O)C(O)(c1ccccc1)c1ccccc1`, the inhibition was inactive: -4.29%. On to `CC1(CBr)Cn2c(nc3ccccc3c2=O)S1` (stereo not given), for which the inhibition was inactive: -1.09%. Then `O=[As](O)(c1ccccc1Br)c1ccccc1Br`, with inactive: 6.53%; and `CC(C)/C=N\N=C(\N)N[N+](=O)[O-]`, with inactive: -8.07%; and `CN(C(=O)Cc1ccc(Cl)c(Cl)c1)[C@@H]1CCCC[C@H]1N1CCCC1`, with inactive: 0.87%. Next, `COP1(=S)c2c(C)nn(CCC#N)c2N=C(c2ccc(F)cc2)N1C` (stereo not given): inactive: 3.82%.

Take `O=C(Nc1ccncc1[N+](=O)[O-])c1ccc([N+](=O)[O-])cc1[N+](=O)[O-]`: the inhibition is inactive: 5.53%. On to `CCOC(=O)c1ccc(NC(=O)C(C)(CCl)SC)cc1` (stereo not given), for which the inhibition was inactive: 1.72%. Then `O=C(OC1CN2CCC1CC2)c1cccc([N+](=O)[O-])c1` (stereo not given), with inactive: 1.33%; and `CCC(C)N(CC(C)C)C(=S)SC(NC(C)=O)C(Cl)(Cl)Cl` (stereo not given), with inactive: 0.93%. Next, `CCOC(=O)Nc1ccc([As](=O)(O)O)c(O)c1`: inactive: 6.89%; `Cc1cc(SC(NC(=O)c2ccccc2)C(Cl)(Cl)Cl)nc(C(C)C)n1` (stereo not given): inactive: -0.94%; `CCCCOc1ccc(C(=O)NCC2(N3CCCCC3)CCCCC2)cc1OC`: inactive: 6.13%. Next, `CCOC(=O)Nc1cccc([As](=O)(O)O)c1`: inactive: -0.736%; `O=[N+]([O-])c1ccc(Nc2ccc(Oc3ccc([N+](=O)[O-])cc3[N+](=O)[O-])cc2)c([N+](=O)[O-])c1`: inactive: 0.344%. For the compound `O=P(Nc1ccccn1)(c1cccc2ccccc12)c1cccc2ccccc12`, the inhibition was inactive: -1.59%.

Consider `Cc1cc(SC(NC=O)C(Cl)(Cl)Cl)ncn1` (stereo not given), for which the inhibition was inactive: 2.73%.

In the case of `C[As](=O)(O)c1cccc(C(=O)O)c1`, the inhibition was inactive: 6.28%.

Take `O=[As](O)(c1ccc(O)cc1)c1ccccc1O`: the inhibition is inactive: 5.08%. Next, `Cc1ccc2nc3c(c(C)c2c1)CC(C(Cl)Cl)S3` (stereo not given): inactive: -7.2%; `Cc1ccc(OP(=O)(Nc2ccc([N+](=O)[O-])cn2)Oc2ccc(C)cc2)cc1`: inactive: -0.747%; `CC(C)c1ccc(OP(=O)(Nc2ccccn2)Oc2ccccc2F)cc1` (stereo not given): inactive: 1.71%.

Take `ClCCSc1nnc(-c2cccnc2)o1`: the inhibition was inactive: 1.43%. With `O=[N+]([O-])c1cc([N+](=O)[O-])c(-c2ccn[nH]2)s1`, the inhibition is inactive: 3.38%.

Turning to `CCN(CC)C(=S)SC(NC=O)C(Cl)(Cl)Cl` (stereo not given), the inhibition is inactive: 15.2%. On to `CC(C)NC(=O)NP(=O)(Oc1ccccc1)Oc1ccccc1`, for which the inhibition was inactive: 14%.

As for `Cc1cc(=O)[nH]c(N[N+](=O)[O-])n1`, the inhibition was inactive: 1.62%. Then `O=C(OC1CN2CCC1CC2)C12CC3CC(CC(C3)C1)C2` (stereo not given), with inactive: -1.83%; and `Cc1c2c(nc3ccccc13)SC(C(Cl)Cl)C2` (stereo not given), with inactive: -1.02%; and `COc1cc(I)ccc1[As](=O)(O)O`, with inactive: 3%.

Consider `COc1ccc2nc(NP(=O)(c3ccccc3)c3ccccc3)sc2c1`, for which the inhibition was inactive: 0.329%. `COc1ccc(N/C(=N/P(=O)(N2CCOCC2)N2CCOCC2)N2CCOCC2)cc1`: the inhibition is inactive: -1.61%.
